Assay outcomes deposited in PubChem BioAssay by National Center for Advancing Translational Sciences (NCATS).
In the library only some 13% were active in any assay of this set; here they are far more common.
miR-21 reporter: miR-21 reporter, rising signal; Potency, µM (titrated, usually from 38.3 µM), without a hit: at the highest dose reporter change, positive = more light; AID 2288; 340,000 tested, under 10 active; HeLa miR-21 FLuc reporter, luciferase, 48 h; active = well fitted rising curve with a large enough effect; inconclusive = small, poorly fitted or top-dose-only effect; inactive = no such curve, though single readings can be large or run the other way;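 note: % of control where 0% means no effect; miR-21 action dims this reporter so a rising signal means less miR-21 action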
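HeLa cells stably expressing CMV-driven firefly luciferase with a downstream miR-21 binding sequence, endogenously expressing miR-21, were treated with titrations (up to about 40uM final) for 48 hours at 37 degree Celsius. Luciferase luminescence was read after lysis.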
ALDH1A1 inh: ALDH1A1 (human) enzyme inhibition. Purified ALDH1A1, NADH fluorescence, propionaldehyde substrate. Potency, µM (series often up to 75.3 µM), without a hit: top-dose activity, negative = inhibition, most hits filed as inhibitors. hit rate 7.3% among 220,000; active = well fitted inhibition curve with a large enough effect, not every such curve was filed as active; inconclusive = small, poorly fitted or top-dose-only effect, or another doubt; inactive = no such curve, though single readings can be large or run the other way;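 also: potency is read from the fitted curve at half-maximal effect; plate controls were no enzyme wells and a reference inhibitor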
JMJD2E inh: blocks human JMJD2E demethylase activity; B2RXH2; JMJD2E catalytic domain, FDH-coupled NADH fluorescence (FDH is formaldehyde dehydrogenase); Potency, µM (doses to about 57.1 µM), for the others: at the highest dose activity change, negative = inhibition, usual class: inhibitors; hit rate 1.6% among 230,000; active = well fitted inhibition curve with a large enough effect, not every such curve was filed as active; inconclusive = small, poorly fitted or top-dose-only effect, or another doubt; inactive = no such curve, though single readings can be large or run the other way;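 also: potency is read from the fitted curve at half-maximal effect; 0% = wells with enzyme and -100% = buffer wells without enzyme; nearly all actives have a fitted effect of over 50% in size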
Lamin A splicing: modulators of lamin A splicing | HeLa LMNA splicing GFP/RFP minigene ratio, 48 h | Potency, µM (doses to about 46.1 µM), inactives show top-dose ratio change, negative = inhibition, actives largely listed as inhibitors | hit rate 0.01% among 200,000 | AID 1487; active = well fitted inhibition curve with a large enough effect in the signal ratio, with a control signal flat, not every such curve was filed as active; inconclusive = small, poorly fitted or top-dose-only effect, or effect the other way, or a change in a side signal; the % refers to the signal ratio; also: potency is read from the fitted curve at half-maximal effect; % is scaled to controls: 0 for no effect and ±100 for the full control effect
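S3 HeLa stable clones carrying a lamin A-EGFP splicing minigene plus DsRed2 were seeded at 600 cells/well in Opti-MEM with 2% FBS, pin-dosed and incubated 48 h at 37°C. Acumen cytometry (488 nm) gave the GFP/RFP total-intensity ratio.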
G9a inh: blocks human histone lysine methyltransferase G9a. G9a H3K9 monomethylation, AlphaScreen, 2 h. Potency, µM (top dose mostly 102 µM), inactives show top-dose activity, negative = inhibition, hits mostly inhibitors. hit rate 8.8% among 350,000; also: potency is read from the fitted curve at half-maximal effect; % is scaled to controls: 0 for no effect and ±100 for the full control effect; nearly all actives have a fitted effect of over 75% in size
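AlphaScreen detection with an anti-monomethyl H3K9 antibody quantified product after a 2 h room-temperature reaction containing 500 nM biotinylated H3K9 peptide, 20 µM SAM and 20 nM enzyme, which had been preincubated 15 min with compound.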
Sfp inh: qHTS Assay for Inhibitors of Bacillus subtilis Sfp phosphopantetheinyl transferase (PPTase); 4'-phosphopantetheinyl transferase ffp (Bacillus subtilis), Q9F4F7; Biochemical Sfp PPTase activity, qHTS; Potency, µM, inactives show max response, negative = inhibition, hits mostly inhibitors; 310,000 compounds, 3.5% hits; AID 1490, 2009; active means well fitted inhibition curve with a large enough effect; inconclusive means small, poorly fitted or top-dose-only effect, or another doubt; inactive means no such curve, though single readings can be large or run the other way;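 further: the enzyme is Sfp with the accession as filed and its product quenches rhodamine fluorescence; potency means the concentration at half of the fitted maximal effect; 0% = enzyme reaction without inhibitor and -100% = no enzyme wells; top concentration of the series not given in the record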
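Sfp 15 nM + cpd, 15 min RT; start w/ rhodamine-CoA 5 uM, BHQ-2-YbbR 12.5 uM (final); 50 mM Hepes pH 7.6, 10 mM MgCl2, 0.01% NP-40, 0.01% BSA; read 525/598 nm at 0 and 30 min.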
* marks the source's active call; other numbers are inactive results; [ ] = dose if it differs, or a comment. Unless noted, calls follow the shape of the dose curve; as a rule, active = well fitted curve in the direction sought with a large enough effect; inconclusive = small, poorly fitted or top-dose-only effect, or another doubt; inactive = no such curve, though single readings can be large; an effect the other way counts as inactive or inconclusive.

Screening CCOc1cc2c(cc1OCC)C(CC(=O)OC)N(C(=O)Nc1cc(OC)ccc1OC)CC2 (stereo not drawn) returned miR-21 reporter -1%, Lamin A splicing inconclusive and G9a inh -2%[12.7 µM].
`Cc1ccc(C2C(=O)N(C3CCCCCC3)CC(=O)N2C(C)C)cc1` (stereo not drawn) gave miR-21 reporter 1%, Lamin A splicing -1%[46 µM] and G9a inh 4%[59 µM].
Screening O=C(NCc1ccco1)c1ccc(Oc2ccccc2)cc1 returned miR-21 reporter -36%, ALDH1A1 inh inconclusive, JMJD2E inh -1%, Lamin A splicing inconclusive, G9a inh inconclusive and Sfp inh 79µM*.
`CC(C)C1Nc2ccc(C(=O)NCc3ccco3)cc2NC1=O` (stereo not drawn) gave miR-21 reporter 5%, G9a inh 79µM* and Sfp inh -1%.
For COC(=O)Cc1ccc(NC(=O)c2ccc3c(c2)C(=O)N(Cc2ccco2)C3=O)cc1 the results were miR-21 reporter 3% and Sfp inh 10%.
For CC(C)CCN1C(=O)c2ccc(C(=O)NCc3ccco3)cc2C1=O the results were miR-21 reporter 0%, ALDH1A1 inh 11µM*, JMJD2E inh 8%, Lamin A splicing 5%, G9a inh -1%[59 µM] and Sfp inh 10%.
Screening CCc1ccc(NC(=O)c2ccc3c(c2)C(=O)N(Cc2ccco2)C3=O)cc1 returned miR-21 reporter -9%, ALDH1A1 inh inconclusive, JMJD2E inh 9%, Lamin A splicing -8%, G9a inh 50µM* and Sfp inh 40µM*.
`Cc1c(C)n(CCCN(C)C)c2ncnc(NC3CCCCC3)c12` gave miR-21 reporter -18%, G9a inh inconclusive and Sfp inh 0%.
Cc1nc2cnc(Oc3cccc(Cl)c3)nc2n(Cc2ccc(F)cc2)c1=O was read as ALDH1A1 inh inconclusive, Lamin A splicing 21%, G9a inh 10%[0.501 µM] and Sfp inh 0%.
COc1ccc(Cl)cc1NC(=O)COC(=O)/C=C/c1c(C)nn(C2CCS(=O)(=O)C2)c1Cl (stereo not drawn) was read as miR-21 reporter 13%, ALDH1A1 inh 25µM*, JMJD2E inh -4%, Lamin A splicing inconclusive, G9a inh 1% and Sfp inh -2%.
Cc1nn(C2CCS(=O)(=O)C2)c(Cl)c1/C=C/C(=O)OCC(=O)Nc1ccccc1OC(F)F (stereo not drawn) was read as miR-21 reporter 0%, ALDH1A1 inh 7%, JMJD2E inh 0%, Lamin A splicing -13%, G9a inh -1%[12.7 µM] and Sfp inh 8%.
For O=C(CCn1c(=O)c2cccn2c2cccnc21)NCc1cccc(Cl)c1 the results were miR-21 reporter -8%, G9a inh 17%[59 µM] and Sfp inh 6%.
`O=C(CCc1nnc(CCCCc2ccccc2)o1)NCCN1CCOC1=O` gave miR-21 reporter -32%, ALDH1A1 inh 0.11µM*, JMJD2E inh -4%, Lamin A splicing inconclusive, G9a inh 22µM* and Sfp inh -17%.
`Cc1ccc(C)c(NC(=O)CC2NCCNC2=O)c1` (stereo not drawn) gave miR-21 reporter -7% and G9a inh -1%[59 µM].
CCOc1ccc(CCNC(=O)COC(=O)c2nc(Cl)ccc2Cl)cc1OCC was read as G9a inh -10%[0.501 µM].
For Cn1cc(/C=C/c2cc[n+](C)cc2)c2cc(F)ccc21 the results were miR-21 reporter inconclusive, G9a inh -33%[2.33 µM] and Sfp inh -12%.
For Cn1cc(C=O)c2cc(F)ccc21 the results were miR-21 reporter 1%, ALDH1A1 inh 2.2µM*, JMJD2E inh inconclusive and Sfp inh 4%.
Screening CCN(CC)c1cc(C)c2cc(NC(=O)/C=C/c3ccc(C)cc3)ccc2n1 returned miR-21 reporter 16% and G9a inh -2%[59 µM].

Some of these compounds in order of SMILES length, falling.
For COC(=O)Cc1ccc(NC(=O)c2ccc3c(c2)C(=O)N(Cc2ccco2)C3=O)cc1 the results were miR-21 reporter 3% and Sfp inh 10%.
Screening CCN(CC)c1cc(C)c2cc(NC(=O)/C=C/c3ccc(C)cc3)ccc2n1 returned miR-21 reporter 16% and G9a inh -2%[59 µM].
For O=C(CCn1c(=O)c2cccn2c2cccnc21)NCc1cccc(Cl)c1 the results were miR-21 reporter -8%, G9a inh 17%[59 µM] and Sfp inh 6%.
